The test deals with T1, Thymidylate kinase (Homo sapiens, UniProt P23919).
T1 sequence (P23919 whole entry): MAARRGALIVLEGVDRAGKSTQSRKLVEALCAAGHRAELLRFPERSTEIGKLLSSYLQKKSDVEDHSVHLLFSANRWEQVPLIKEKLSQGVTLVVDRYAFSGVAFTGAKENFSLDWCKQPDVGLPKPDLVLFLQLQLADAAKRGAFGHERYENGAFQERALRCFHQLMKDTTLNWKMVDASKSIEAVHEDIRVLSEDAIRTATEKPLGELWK
The test can be described thus: Inhibition of human thymidylate kinase using dTMP as substrate after 30 mins by fluorescence analysis.

The molecule `O=C(O)c1cc(SSc2ccc([N+](=O)[O-])c(C(=O)O)c2)ccc1[N+](=O)[O-]` returned an IC50 of 1530 nM.

Values taken from ChEMBL document CHEMBL1955766, “Structure guided development of novel thymidine mimetics targeting Pseudomonas aeruginosa thymidylate kinase: from hit to lead generation” (J Med Chem, 2012).
